Literature values as cited in patent US9737596B2, “Vaccine for the prevention of breast cancer recurrence” (The Henry M. Jackson Foundation for the Advancement of …, priority 2008, dated 2017).

Tested on: patients with low to intermediate HER2/neu expression
Conditions: human, in vivo; cited from earlier work

trastuzumab: recombinant, humanized monoclonal antibody that binds the extracellular juxtamembrane domain of HER2/neu protein
activity in patients with low to intermediate HER2/neu expression: very limited activity
